One substance from publication PMC9730901 can be followed below.

Sequences of proteins named here, by UniProt entry; tags and fusion partners are left off. Residues count along the entry.
UniProt P08637, 17-208: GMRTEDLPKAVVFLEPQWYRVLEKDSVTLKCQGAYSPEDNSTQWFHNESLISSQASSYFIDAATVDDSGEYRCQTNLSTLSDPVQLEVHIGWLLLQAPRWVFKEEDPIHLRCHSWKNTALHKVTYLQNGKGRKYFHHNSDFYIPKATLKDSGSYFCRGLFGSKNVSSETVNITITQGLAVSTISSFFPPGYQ

The experiment concerns the target herceptin. In words: SPR; Biacore T200, CM5 chip; protein L amine-coupled (about 300 RU); antibodies (6 nM) captured on protein L; FcγRIa, FcγRIIa, FcγRIIIa injected at 1.66, 5, 15 nM, single-cycle, 60 s association, 600 s dissociation, HBS-EP, 22 °C. A general note: Surface plasmon resonance follows binding to a sensor surface in real time, without labels.

On to “recombinant FcγRIIIa (from UniProt P08637 17-208) (receptor)”, for which the binding response (RU) amounted to 9 RU.
